Assay results taken from patent US6410554B1, “Combination therapy for the treatment of benign prostatic hyperplasia” (Merck & Co., Inc., priority 1998, dated 2002).

Target: T1, human alpha-1a adrenergic receptor (Homo sapiens, UniProt P35348)
T1 sequence (P35348 1-466): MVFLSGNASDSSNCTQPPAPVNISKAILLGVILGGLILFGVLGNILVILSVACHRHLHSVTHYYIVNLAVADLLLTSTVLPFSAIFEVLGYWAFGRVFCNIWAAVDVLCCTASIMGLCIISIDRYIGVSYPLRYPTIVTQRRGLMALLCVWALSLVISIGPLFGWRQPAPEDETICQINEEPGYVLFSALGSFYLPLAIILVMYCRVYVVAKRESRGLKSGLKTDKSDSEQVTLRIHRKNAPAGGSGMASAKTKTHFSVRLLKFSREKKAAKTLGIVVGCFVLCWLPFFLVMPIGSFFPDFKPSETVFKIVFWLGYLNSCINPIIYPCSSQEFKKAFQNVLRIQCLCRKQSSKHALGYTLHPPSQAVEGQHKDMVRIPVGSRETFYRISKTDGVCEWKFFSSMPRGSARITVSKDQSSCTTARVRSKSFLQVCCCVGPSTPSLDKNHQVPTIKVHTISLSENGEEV
Assay: selectivity for the alpha-1a adrenergic receptor (assays described in WO 96/14846)
Assay type: binding
Conditions: Compound A and pharmaceutically acceptable salts thereof
Method: Compound A is prepared according to the procedure of Example 30 in WO 96/14846 or according to the processes disclosed in detail herein. The identification of Compound A as an alpha-1a adrenergic receptor antagonist was established according to the assays described in WO 96/14846.
One implication of this selectivity is that these compounds display selectivity for lowering intraurethral pressure without substantially affecting diastolic blood pressure.

selectivity for the human alpha-1a adrenergic receptor: high selectivity
Substance: (+)-5-Methoxycarbonyl-6-(3,4-difluorophenyl-4-methoxymethyl-1-{N-[3-(4-(2-pyridyl)piperdin-1-yl)propyl]}-carboxamido-2-oxo-1,2,3,6-tetrahydropyrimidine [Compound A]
